The text below walks through data of patent US10221459B2, “Compositions and methods of treating cancer harboring PIKC3A mutations” (Case Western Reserve University, priority 2014, dated 2019).

The subject of this assay is HCT116 PIK3CA mutant cell. As to conditions: glutamine deprived, supplemented with 4 mM α-KG, 3 days; less than 8% survived without α-KG.

For the substance α-ketoglutarate [α-KG], the cell survival is on record as approximately 60%.
